Test [1] concerns the target T1, human NLRP3 (Homo sapiens (Human), UniProt Q96P20). Nature of the test: Scintillation Proximity (SPA) NLRP3 Assay: displacement of 3H-MCC950. Particulars: read-out: SPA IC50. It counts as binding. A general note: In a scintillation proximity assay essentially only radioactivity close to the scintillant gives light.
Test [2] deals with T1, human NLRP3. Nature of the test: Human PBMC NLRP3 Assay (LPS priming, ATP stimulation, cytokine measurement). It counts as cell-based. Particulars: read-out: PBMC IC50.
The target of test [3] is T1, human NLRP3. In words: Human Whole Blood (hWB) NLRP3 Assay (LPS/ATP, IL-1β). The format is cell-based. The settings on record: read-out: hWB IC50.

Amino acid sequences for entries named in this document (tags omitted).
UniProt Q96P20, whole entry: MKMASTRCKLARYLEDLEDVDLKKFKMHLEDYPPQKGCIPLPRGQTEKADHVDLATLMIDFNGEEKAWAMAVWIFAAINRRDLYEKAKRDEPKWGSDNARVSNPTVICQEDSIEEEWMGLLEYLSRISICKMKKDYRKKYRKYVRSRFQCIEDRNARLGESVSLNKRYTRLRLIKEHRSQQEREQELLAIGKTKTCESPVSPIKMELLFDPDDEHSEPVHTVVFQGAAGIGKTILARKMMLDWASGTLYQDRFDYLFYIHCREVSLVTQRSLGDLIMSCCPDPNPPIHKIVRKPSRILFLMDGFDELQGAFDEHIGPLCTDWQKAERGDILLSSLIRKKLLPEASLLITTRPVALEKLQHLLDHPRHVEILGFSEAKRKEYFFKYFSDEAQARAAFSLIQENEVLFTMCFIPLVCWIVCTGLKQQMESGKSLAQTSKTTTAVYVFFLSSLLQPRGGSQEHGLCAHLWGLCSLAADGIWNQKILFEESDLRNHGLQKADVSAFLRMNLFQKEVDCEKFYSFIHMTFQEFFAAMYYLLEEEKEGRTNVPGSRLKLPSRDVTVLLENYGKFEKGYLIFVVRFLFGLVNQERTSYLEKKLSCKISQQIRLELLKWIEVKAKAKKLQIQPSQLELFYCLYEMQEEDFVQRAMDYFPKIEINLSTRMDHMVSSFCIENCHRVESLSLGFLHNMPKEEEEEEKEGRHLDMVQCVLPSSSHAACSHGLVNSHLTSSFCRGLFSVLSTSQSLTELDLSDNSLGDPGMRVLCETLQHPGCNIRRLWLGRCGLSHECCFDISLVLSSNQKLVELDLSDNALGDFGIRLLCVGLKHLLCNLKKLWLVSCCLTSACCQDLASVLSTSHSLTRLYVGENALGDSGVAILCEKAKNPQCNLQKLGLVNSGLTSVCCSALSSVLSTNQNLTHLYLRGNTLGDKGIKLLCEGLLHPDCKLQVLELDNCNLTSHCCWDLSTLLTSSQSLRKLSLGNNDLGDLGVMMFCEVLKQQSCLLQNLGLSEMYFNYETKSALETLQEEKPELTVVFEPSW

What is called IC50 is the point on the concentration scale where inhibition reaches its midpoint.

For `C[C@@H]1CCN(c2nnn[nH]2)C[C@H](NC(=O)C2(c3ncc(Cl)cc3O)CC2)C1` (relative stereo), the IC50 in test [1] was < 1000 nM; in test [2] it was 10 to 100 nM; in test [3], 1000 to 2000 nM.
In the case of `C[C@H]1CCN(c2nnn[nH]2)C[C@H](NC(=O)C2(c3ncc(Cl)cc3O)CC2)C1` (relative stereo), the IC50 is 1000 to 10000 nM in test [1] and 2000 to 3000 nM in test [3].
Regarding `C[C@H]1CCN(c2nnn[nH]2)C[C@@H](NC(=O)C2(c3ccc(Cl)c(F)c3)CC2)C1` (single isomer, unassigned), the IC50 in test [1] fell in the range of 10000 to 50000 nM.
On to `Cc1cc(C2(C(=O)N[C@H]3C[C@@H](C)CCN(c4nnn[nH]4)C3)CC2)ccc1C(F)(F)F` (single isomer, unassigned), for which, in test [1], the IC50 fell in the range of 50000 to 100000 nM.

These data come from US20260007684A1, “AMIDE DERIVATIVES FOR INHIBITING NLRP3 AND USES THEREOF” (Ventus Therapeutics U.S., Inc., priority 2023, published 2026).
